Values of other authors as cited in patent US20230117831A1, “MULTI-FUNCTIONAL CHIMERIC MOLECULES” (THE BROAD INSTITUTE, INC., priority 2020, published 2023).

The chains behind the UniProt entries cited, without tags or fusion partners. Where a name states a change or a piece, a line headed by the entry shows the natural chain unless it says otherwise. Residues count along the entry.
UniProt Q96GD4, whole entry, species assumed: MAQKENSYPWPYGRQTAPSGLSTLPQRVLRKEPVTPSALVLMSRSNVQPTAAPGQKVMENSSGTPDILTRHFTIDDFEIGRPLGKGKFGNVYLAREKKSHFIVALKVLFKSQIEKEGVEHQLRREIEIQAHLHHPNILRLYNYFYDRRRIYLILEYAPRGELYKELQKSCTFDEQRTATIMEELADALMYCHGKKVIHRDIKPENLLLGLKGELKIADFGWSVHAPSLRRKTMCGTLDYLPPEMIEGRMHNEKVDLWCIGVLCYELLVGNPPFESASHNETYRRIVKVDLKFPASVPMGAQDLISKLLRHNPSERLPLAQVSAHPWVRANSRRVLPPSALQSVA
UniProt P30530, 26-894, species assumed: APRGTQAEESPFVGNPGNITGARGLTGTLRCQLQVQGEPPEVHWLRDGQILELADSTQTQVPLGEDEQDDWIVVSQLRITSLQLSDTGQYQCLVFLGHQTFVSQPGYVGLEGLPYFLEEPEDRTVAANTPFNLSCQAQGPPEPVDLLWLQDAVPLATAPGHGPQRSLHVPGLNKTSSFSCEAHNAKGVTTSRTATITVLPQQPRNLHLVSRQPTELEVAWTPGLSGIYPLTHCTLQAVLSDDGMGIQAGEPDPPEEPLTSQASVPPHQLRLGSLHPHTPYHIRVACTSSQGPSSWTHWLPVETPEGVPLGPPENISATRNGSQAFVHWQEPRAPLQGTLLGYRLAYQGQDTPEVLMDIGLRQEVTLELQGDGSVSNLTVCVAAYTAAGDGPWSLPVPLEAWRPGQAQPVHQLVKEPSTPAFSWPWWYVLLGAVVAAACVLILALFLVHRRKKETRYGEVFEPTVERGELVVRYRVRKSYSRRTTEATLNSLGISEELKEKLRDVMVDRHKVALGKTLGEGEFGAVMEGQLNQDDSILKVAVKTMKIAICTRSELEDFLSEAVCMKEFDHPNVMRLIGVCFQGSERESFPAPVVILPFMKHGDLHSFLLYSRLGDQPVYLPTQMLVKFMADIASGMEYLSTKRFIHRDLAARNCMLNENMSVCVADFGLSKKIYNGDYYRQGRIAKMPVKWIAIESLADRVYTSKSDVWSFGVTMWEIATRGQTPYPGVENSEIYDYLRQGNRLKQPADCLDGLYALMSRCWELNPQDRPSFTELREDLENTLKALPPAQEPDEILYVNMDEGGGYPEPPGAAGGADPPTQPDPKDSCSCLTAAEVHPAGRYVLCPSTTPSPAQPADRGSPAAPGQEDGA
UniProt Q16539, whole entry, species assumed: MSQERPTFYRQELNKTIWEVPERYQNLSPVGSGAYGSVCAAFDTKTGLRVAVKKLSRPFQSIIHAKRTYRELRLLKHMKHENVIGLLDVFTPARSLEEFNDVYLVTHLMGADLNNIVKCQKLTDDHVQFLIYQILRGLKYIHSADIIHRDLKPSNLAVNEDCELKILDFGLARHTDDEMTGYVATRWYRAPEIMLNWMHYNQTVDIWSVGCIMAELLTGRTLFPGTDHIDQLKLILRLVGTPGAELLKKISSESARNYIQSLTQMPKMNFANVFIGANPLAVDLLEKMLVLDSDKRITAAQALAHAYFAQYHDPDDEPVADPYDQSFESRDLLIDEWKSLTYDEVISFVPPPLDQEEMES
UniProt P07949, 29-1114, species assumed: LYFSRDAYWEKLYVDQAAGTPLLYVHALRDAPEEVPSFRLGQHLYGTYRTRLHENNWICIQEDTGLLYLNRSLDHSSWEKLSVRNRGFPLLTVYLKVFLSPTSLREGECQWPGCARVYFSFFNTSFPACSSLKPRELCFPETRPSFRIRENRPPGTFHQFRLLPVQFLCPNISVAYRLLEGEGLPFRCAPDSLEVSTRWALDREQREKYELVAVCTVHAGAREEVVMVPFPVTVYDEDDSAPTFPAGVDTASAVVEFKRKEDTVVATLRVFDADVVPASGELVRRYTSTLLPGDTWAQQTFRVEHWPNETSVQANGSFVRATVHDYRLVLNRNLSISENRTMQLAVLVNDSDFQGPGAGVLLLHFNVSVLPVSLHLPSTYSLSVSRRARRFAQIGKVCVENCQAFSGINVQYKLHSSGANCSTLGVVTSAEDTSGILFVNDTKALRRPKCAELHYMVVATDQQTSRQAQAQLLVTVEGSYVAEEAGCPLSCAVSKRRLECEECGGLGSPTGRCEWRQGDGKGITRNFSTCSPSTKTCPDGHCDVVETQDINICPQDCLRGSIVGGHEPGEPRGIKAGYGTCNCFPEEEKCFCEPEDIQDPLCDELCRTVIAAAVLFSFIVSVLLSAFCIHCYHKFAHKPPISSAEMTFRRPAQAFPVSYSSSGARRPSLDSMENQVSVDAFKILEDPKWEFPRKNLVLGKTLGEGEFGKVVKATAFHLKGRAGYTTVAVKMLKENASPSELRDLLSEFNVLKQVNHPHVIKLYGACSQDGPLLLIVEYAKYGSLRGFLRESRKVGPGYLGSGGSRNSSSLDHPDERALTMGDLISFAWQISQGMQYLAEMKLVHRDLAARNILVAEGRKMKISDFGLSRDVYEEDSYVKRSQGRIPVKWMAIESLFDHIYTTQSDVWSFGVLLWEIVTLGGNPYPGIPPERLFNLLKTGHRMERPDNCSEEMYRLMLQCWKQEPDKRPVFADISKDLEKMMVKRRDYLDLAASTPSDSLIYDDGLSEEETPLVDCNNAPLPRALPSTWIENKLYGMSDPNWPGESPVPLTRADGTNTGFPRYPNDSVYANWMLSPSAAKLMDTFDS
UniProt O00329: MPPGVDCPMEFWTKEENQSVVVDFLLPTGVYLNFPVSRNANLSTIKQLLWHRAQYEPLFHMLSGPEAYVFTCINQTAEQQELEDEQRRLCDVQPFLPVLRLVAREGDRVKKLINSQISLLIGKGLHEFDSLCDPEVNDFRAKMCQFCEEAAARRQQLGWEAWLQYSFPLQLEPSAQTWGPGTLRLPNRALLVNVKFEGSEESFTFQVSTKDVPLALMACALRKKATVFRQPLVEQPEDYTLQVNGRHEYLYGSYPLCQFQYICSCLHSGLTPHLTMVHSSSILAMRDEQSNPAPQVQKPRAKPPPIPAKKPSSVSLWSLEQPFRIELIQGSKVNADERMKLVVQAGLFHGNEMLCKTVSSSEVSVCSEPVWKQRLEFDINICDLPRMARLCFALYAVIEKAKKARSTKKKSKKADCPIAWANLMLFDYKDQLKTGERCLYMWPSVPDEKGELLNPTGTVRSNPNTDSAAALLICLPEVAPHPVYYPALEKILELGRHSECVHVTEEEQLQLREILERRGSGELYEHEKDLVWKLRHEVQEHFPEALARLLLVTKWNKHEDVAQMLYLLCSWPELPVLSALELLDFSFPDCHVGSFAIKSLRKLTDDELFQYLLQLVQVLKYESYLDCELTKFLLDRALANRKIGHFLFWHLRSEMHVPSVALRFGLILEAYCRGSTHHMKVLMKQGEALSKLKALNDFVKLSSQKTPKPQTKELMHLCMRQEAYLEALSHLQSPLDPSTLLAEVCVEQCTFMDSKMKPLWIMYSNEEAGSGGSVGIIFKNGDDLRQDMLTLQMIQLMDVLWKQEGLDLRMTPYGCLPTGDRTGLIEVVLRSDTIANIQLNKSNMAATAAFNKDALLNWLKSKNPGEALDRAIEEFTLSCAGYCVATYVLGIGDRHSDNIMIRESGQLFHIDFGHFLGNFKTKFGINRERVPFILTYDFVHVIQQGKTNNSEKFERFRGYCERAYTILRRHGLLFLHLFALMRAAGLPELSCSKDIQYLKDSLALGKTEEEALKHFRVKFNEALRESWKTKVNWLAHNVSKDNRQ
UniProt P42336, whole entry: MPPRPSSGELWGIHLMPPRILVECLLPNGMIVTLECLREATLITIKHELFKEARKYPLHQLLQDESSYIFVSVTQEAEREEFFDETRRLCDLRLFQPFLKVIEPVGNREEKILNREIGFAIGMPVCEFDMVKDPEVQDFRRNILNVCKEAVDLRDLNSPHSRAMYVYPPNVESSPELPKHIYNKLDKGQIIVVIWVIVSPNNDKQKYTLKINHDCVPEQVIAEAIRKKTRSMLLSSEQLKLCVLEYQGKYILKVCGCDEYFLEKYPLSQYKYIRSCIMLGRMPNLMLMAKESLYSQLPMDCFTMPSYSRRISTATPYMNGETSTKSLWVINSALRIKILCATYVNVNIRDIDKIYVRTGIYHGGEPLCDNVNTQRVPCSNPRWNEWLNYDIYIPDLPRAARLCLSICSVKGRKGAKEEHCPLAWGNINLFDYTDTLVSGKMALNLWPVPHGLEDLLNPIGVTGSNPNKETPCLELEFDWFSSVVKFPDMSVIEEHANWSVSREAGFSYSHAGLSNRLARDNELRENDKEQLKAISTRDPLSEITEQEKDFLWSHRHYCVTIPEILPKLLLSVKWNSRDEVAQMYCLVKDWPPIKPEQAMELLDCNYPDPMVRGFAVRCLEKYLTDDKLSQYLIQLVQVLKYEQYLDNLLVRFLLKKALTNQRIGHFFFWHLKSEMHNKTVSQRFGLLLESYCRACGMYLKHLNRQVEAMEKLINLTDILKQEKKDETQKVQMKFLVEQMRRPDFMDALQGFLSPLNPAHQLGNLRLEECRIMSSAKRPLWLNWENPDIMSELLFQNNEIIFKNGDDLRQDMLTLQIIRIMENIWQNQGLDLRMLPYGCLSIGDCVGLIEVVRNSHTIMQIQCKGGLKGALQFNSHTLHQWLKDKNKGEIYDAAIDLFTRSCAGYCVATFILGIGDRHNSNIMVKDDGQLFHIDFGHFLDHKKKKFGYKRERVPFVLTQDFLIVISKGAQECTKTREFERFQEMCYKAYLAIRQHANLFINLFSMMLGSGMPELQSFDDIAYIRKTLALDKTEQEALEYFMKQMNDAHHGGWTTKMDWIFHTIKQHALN

Legend:
Settings in all cases: cited from earlier work
AurB (AURKB) = AurB (AURKB) (Homo sapiens, UniProt Q96GD4)
AXL = AXL (Homo sapiens, UniProt P30530)
p38α (MAPK14) = p38α (MAPK14) (Homo sapiens, UniProt Q16539)
p38α (MAPK14)^b = p38α (MAPK14)^b (Homo sapiens, UniProt Q16539)
RET = RET (Homo sapiens, UniProt P07949)
PIK3Cδ/PIK3R1 = PIK3Cδ/PIK3R1 (Homo sapiens, UniProt O00329)
PIK3Cα/PIK3R1 = PIK3Cα/PIK3R1 (Homo sapiens, UniProt P42336)
AurA (AURKA) = biological target: T1, AurA (AURKA) (Homo sapiens, UniProt O14965)
T1 sequence (O14965 1-403): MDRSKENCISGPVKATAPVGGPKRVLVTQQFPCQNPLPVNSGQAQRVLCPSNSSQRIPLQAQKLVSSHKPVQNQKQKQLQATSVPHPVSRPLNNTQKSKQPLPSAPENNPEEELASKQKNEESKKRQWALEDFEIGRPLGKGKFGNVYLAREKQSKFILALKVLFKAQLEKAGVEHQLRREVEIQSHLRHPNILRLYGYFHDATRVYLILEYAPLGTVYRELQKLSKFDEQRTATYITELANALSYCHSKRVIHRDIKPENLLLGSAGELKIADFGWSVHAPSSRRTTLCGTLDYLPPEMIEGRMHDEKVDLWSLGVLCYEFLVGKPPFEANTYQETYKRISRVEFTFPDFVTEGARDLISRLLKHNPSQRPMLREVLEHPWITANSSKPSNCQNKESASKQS

For `Cc1cc(Nc2cc(N3CCN(C)CC3)nc(Sc3ccc(NC(=O)C4CC4)cc3)n2)[nH]n1` [Tozasertib], the ka (AurB (AURKB)) is listed as 31500 M⁻¹ s⁻¹.

In the case of `C[C@@H](Oc1cc(-c2cnn(C3CCNCC3)c2)cnc1N)c1c(Cl)ccc(F)c1Cl` [Crizotinib], the ka (AXL) is listed as 48200 M⁻¹ s⁻¹ and the “log(ka)” value (AXL) is listed as 4.68.

In the case of `CNC(=O)c1cc(Oc2ccc(NC(=O)Nc3ccc(Cl)c(C(F)(F)F)c3)cc2)ccn1` [Sorafenib], the ka (p38α (MAPK14)) is given as 17500 M⁻¹ s⁻¹, the “log(ka)” value (p38α (MAPK14)) is given as 4.24 and the ka (p38α (MAPK14)^b) is given as 19200 M⁻¹ s⁻¹. For the same compound, the ka (RET) was 25500 M⁻¹ s⁻¹ and the “log(ka)” value (RET) was 4.41.

For `CS(=O)(=O)N1CCN(Cc2cc3nc(-c4cccc5[nH]ncc45)nc(N4CCOCC4)c3s2)CC1` [Pictilisib], the ka (PIK3Cδ/PIK3R1) is listed as 4.02e+06 M⁻¹ s⁻¹ and the ka (PIK3Cα/PIK3R1) is listed as 4.09e+06 M⁻¹ s⁻¹.

In the case of `O=C(O)c1ccc(Nc2ncc3c(n2)-c2ccc(Cl)cc2C(c2c(F)cccc2F)=NC3)cc1` [MLN8054], the ka (AurA (AURKA)) is listed as 3.06e+06 M⁻¹ s⁻¹ and the “log(ka)” value (AurA (AURKA)) is listed as 6.49.
